Reference: article PMC11279160, “Anti-Leishmania amazonensis Activity of Morolic Acid, a Pentacyclic Triterpene with Effects on Innate Immune Response during Macrophage Infection” (Microorganisms, 2024)

Key:
[1] = tested on: L. (L.) amazonensis axenic amastigotes; test: Growth inhibition of axenic amastigotes, MTT assay, 72 h; assay type: cell-based, Leishmania (Leishmania) amazonensis; conditions: on the basis of SI
[2] = tested on: L. (L.) amazonensis promastigotes; test: Growth inhibition of promastigotes, MTT assay, 72 h; assay type: cell-based, Leishmania (Leishmania) amazonensis; conditions: on the basis of SI

CC1(C)C=C2[C@H]3CC[C@@H]4[C@@]5(C)CC[C@H](O)C(C)(C)[C@@H]5CC[C@@]4(C)[C@]3(C)CC[C@@]2(C(=O)O)CC1 [Morolic acid, morolic acid]
times more selective for axenic amastigotes than amphotericin B [1]: 32.1 times | times more selective for axenic amastigotes than meglumine antimoniate [1]: 24.8 times | times more selective for promastigotes than amphotericin B [2]: 57.8 times | times more selective for promastigotes than meglumine antimoniate [2]: 79.8 times
